Measurements from PubChem BioAssay (EPA / NIEHS).
The entries are a selection whose mix differs from that of the whole data set. Calls of active or inactive are those of the source. The calls were made as follows: active = hit-call score of the fitted dose curve at least 0.9, where 1 is the maximum; inactive = score below 0.9.

The chains behind the UniProt entries cited, without tags or fusion partners. Where a name states a change or a piece, a line headed by the entry shows the natural chain unless it says otherwise.
UniProt Q9UNQ0: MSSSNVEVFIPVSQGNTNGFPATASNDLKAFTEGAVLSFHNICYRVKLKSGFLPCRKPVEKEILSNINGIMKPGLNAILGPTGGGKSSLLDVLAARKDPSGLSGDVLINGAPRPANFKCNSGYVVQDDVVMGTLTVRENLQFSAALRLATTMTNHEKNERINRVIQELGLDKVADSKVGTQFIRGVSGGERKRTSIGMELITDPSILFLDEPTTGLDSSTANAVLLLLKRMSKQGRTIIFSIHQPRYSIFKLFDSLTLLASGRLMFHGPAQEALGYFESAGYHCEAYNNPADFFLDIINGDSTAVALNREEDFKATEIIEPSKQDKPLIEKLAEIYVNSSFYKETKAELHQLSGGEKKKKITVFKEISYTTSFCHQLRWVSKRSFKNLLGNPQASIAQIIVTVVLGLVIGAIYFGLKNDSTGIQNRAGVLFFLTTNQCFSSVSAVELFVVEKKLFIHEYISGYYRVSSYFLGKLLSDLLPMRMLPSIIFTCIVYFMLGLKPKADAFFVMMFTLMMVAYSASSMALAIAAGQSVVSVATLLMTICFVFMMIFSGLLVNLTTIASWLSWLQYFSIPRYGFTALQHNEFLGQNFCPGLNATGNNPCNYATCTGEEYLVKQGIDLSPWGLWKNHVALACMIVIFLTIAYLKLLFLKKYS

read-out: Broad substrate specificity ATP-binding cassette transporter ABCG2 (Homo sapiens) (UniProt Q9UNQ0); experiment: LTEA_HepaRG_ABCG2: Life Technologies and Expression Analysis (LTEA) Assay for ABC Transporter (ABCG2) using HepaRG (AID 2283465); conditions: actives raise or lower the signal; mRNA level, 48 h
Procedure, shortened: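 ABCG2 transcript was quantified by TaqMan qRT-PCR against three housekeeping genes in HepaRG cells. Cells were treated in duplicate for 48 h across an 8-point half-log series up to 100 uM, with 0.5% DMSO vehicle. Gain or loss versus DMSO was fit.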

| SMILES | outcome | AC50 |
| --- | --- | --- |
| CN(C(=O)Cc1cccc2occc12)[C@H]1CC[C@@]2(CCCO2)C[C@@H]1N1CCCC1 | inactive | – |
| CC(C)OP(=S)(OC(C)C)SCCNS(=O)(=O)c1ccccc1 | – | active: 12.3 µM |
| Cc1cc([N+](=O)[O-])cc([N+](=O)[O-])c1O | – | active: 90.9 µM |
| O=C1C2CC=CCC2C(=O)N1SC(Cl)(Cl)C(Cl)Cl (centres undefined) | inactive | – |

read-out: ATP-citrate lyase (ACLY), ACLY (gene 47); experiment: LTEA_HepaRG_ACLY: Life Technologies and Expression Analysis (LTEA) Assay for ATP-citrate lyase (ACLY) using HepaRG (AID 2283466); conditions: actives raise or lower the signal; mRNA level, 48 h
Procedure, shortened: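 ACLY mRNA quantified by qRT-PCR on Fluidigm arrays against three housekeeping genes, after 48 h chemical treatment of HepaRG cells (top concentration 100 uM, half-log steps, 0.5% DMSO vehicle). Up- or down-regulation fitted relative to DMSO.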

| SMILES | outcome | AC50 |
| --- | --- | --- |
| CN(C(=O)Cc1cccc2occc12)[C@H]1CC[C@@]2(CCCO2)C[C@@H]1N1CCCC1 | inactive | – |
| CC(C)OP(=S)(OC(C)C)SCCNS(=O)(=O)c1ccccc1 | – | active: 83.6 µM |
| Cc1cc([N+](=O)[O-])cc([N+](=O)[O-])c1O | – | active: 12.3 µM |
| O=C1C2CC=CCC2C(=O)N1SC(Cl)(Cl)C(Cl)Cl (centres undefined) | inactive | – |

read-out: Peroxisomal acyl-coenzyme A oxidase 1 (ACOX1) gene, ACOX1 (gene 51); experiment: LTEA_HepaRG_ACOX1: Life Technologies and Expression Analysis (LTEA) Assay for Peroxisomal acyl-coenzyme A oxidase 1 (ACOX1) gene using HepaRG (AID 2283467); conditions: actives raise or lower the signal; mRNA level, 48 h
Protocol: LTEA_HepaRG is a cell based, multiplexed-readout assay that uses HepaRG, a human liver cell line, with measurements taken at 48 hours after chemical dosing on a 96-well plate.LTEA_HepaRG_ACOX1 is one of 102 assay component(s) measured in the LTEA HepaRG cell culture assay. It is a marker of Steatosis.Data from the assay component LTEA_HepaRG_ACOX1 was analyzed into 1 endpoint. This assay endpoint, LTEA_HepaRG_ACOX1, was analyzed with bidirectional fitting relative to DMSO as the negative control and baseline of activity. Using a type of inducible reporter, measures of mRNA induction for gain or loss-of-signal activity can be used to understand regulation of transcription factor activity. To generalize the intended target to other relatable targets, this assay endpoint is annotated to the oxidase intended target family, where the subfamily is steatosis.
A total of 1060 chemcials from the ToxCast library were tested in eight-point concentration-response experiments. Cell culture and cytotoxicity assays were conducted at Thermo Fisher Scientific's Custom Services facility (Madison, WI). A single lot of human HepaRG cells (Thermo Fisher Scientific, Frederick, MD) was used for the cell culture experiments. 96-well format collagen type I coated plates of human HepaRG cells were prepared using established methods. Briefly, cryopreserved HepaRG cells were thawed, plated at a density of approximately 100,000 cells/well in HepaRG Thaw, Plate, and General Purpose media (HPRG770, Thermo Fisher Scientific), and incubated for 48 hours. 0.5% DMSO was selected as vehicle control to balance the requisite need of DMSO in HepaRG cultures to maintain differentiation (for example, baseline metabolism, proportions of hepatocytes vs. cholangiocytes), while enabling further hepatic receptor pathway activation (for example, PXR and CAR) in response to chemical exposure. 48 hours after plating, the culture medium was replaced with HepaRG Serum-Free Incudtion Media. Cells were exposed to each test chemical in duplicate and maintained in CO2 incubators for another 48 hours. Chemical plates were thawed to room temperature and 200x concentrations of treatment groups were prepared. 8-point conentration-reponse curves were made with the highest exposure at 100 uM, followed by half-log dilutions, all in 0.5% DMSO. Each test plate contained variouse controls, induction positive controls (1mM phenobarbital), cytotoxicity positive controls ([…] aflatoxin B1), vehicle controls (0.5% DMSO), and total lysis controls (0.5% DMSO). […] Fluidigm's 96.96 Dynamic ArrayTM (Fluidigm, Amsterdam, the Netherlands) technology was used for gene expression analyses by quantitative reverse transcription polymerase chain reaction (qRT-PCR, performed by Quintiles/Expression Analysis, Durham, NC)89. […]

| SMILES | outcome | AC50 |
| --- | --- | --- |
| CN(C(=O)Cc1cccc2occc12)[C@H]1CC[C@@]2(CCCO2)C[C@@H]1N1CCCC1 | inactive | – |
| CC(C)OP(=S)(OC(C)C)SCCNS(=O)(=O)c1ccccc1 | – | active: 77.9 µM |
| Cc1cc([N+](=O)[O-])cc([N+](=O)[O-])c1O | – | active: 12.7 µM |
| O=C1C2CC=CCC2C(=O)N1SC(Cl)(Cl)C(Cl)Cl (centres undefined) | inactive | – |

read-out: Alkaline Phosphatase, Placental (ALPP) gene, ALPP (gene 250); experiment: LTEA_HepaRG_ALPP: Life Technologies and Expression Analysis (LTEA) Assay for Alkaline Phosphatase, Placental (ALPP) gene using HepaRG (AID 2283468); conditions: actives raise or lower the signal; mRNA level, 48 h;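 as to AC50: differentiated human HepaRG liver cells in serum-free induction medium; ALPP transcript by TaqMan qRT-PCR normalized to ACTB GAPDH and POLR2A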
Procedure, shortened: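 Expression of ALPP was quantified by qRT-PCR against three housekeeping genes in human HepaRG cultures treated for 48 h with an eight-point concentration series up to 100 uM. Activity in either direction was fitted relative to 0.5% DMSO.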

| SMILES | outcome | AC50 |
| --- | --- | --- |
| CN(C(=O)Cc1cccc2occc12)[C@H]1CC[C@@]2(CCCO2)C[C@@H]1N1CCCC1 | inactive | – |
| CC(C)OP(=S)(OC(C)C)SCCNS(=O)(=O)c1ccccc1 | inactive | – |
| Cc1cc([N+](=O)[O-])cc([N+](=O)[O-])c1O | – | active: 50 µM |

read-out: Bcl-2 (BAD) gene, BAD (gene 572); experiment: LTEA_HepaRG_BAD: Life Technologies and Expression Analysis (LTEA) Assay for Bcl-2 (BAD) gene using HepaRG (AID 2283469); conditions: actives raise or lower the signal; mRNA level, 48 h
Procedure, shortened: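 Read-out: qRT-PCR of BAD mRNA, normalized to three housekeeping genes. Human HepaRG cultures got 48 h chemical exposure in 0.5% DMSO, duplicate eight-point half-log series topping at 100 uM. Gain or loss of signal fitted versus DMSO vehicle.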

| SMILES | outcome |
| --- | --- |
| CN(C(=O)Cc1cccc2occc12)[C@H]1CC[C@@]2(CCCO2)C[C@@H]1N1CCCC1 | inactive |
| CC(C)OP(=S)(OC(C)C)SCCNS(=O)(=O)c1ccccc1 | inactive |
| Cc1cc([N+](=O)[O-])cc([N+](=O)[O-])c1O | inactive |
| O=C1C2CC=CCC2C(=O)N1SC(Cl)(Cl)C(Cl)Cl (centres undefined) | inactive |
